Measured affinities in a library of Ab-14 heavy chain variants

The measurements come from Li et al. 2023 (doi:10.1038/s41467-023-39022-2) through the FLAb antibody collection.

Target peptide (SARS-CoV-2 spike, HR2 region): PDVDLGDISGINAS

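The parent was found by panning a naive human phage display library on the peptide. These sequences belong to a second round, designed from the earlier measurements on random variants of the parent. Several design methods are mixed in this list. The scFvs were displayed on barcoded MATa yeast, the peptide on MATalpha yeast. Binding brings cells together so that they mate, and sequencing counts the barcode pairs among the diploids. Read counts were normalised to the haploid input and turned into Kd by a linear fit to BCL2-family pairs of known affinity, for each replicate. Each pool was mated in six replicate cultures.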

Each scFv is VH, a 15-residue (Gly4Ser)3 linker, VL, as in the parent Ab-14, and differs from it in the CDRs of the heavy chain only.
VH: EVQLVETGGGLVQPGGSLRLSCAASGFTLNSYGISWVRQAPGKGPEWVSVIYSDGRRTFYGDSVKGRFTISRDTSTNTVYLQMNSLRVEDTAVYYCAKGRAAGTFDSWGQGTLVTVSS
VL: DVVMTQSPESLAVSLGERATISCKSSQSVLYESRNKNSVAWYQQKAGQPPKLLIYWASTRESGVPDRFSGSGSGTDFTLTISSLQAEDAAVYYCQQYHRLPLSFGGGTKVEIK

The whole VH of each variant is written out.
Values are log10 of the apparent Kd in nM; lower means stronger binding.
A mean of the replicates is given; it leaves out those without a signal.
An entry "nd" has no value in the source: the pair was not observed among the diploids in any replicate. This suggests poor binding but is not conclusive.
Entries are sorted by rising average, undetected variants last.
Values of this round are not directly comparable with the first-round values of the same sequences.
Nonspecific signal, from three strains lacking the peptide, appeared in 1% of pairings of all heavy chain designs, centred on 2.08 (5% of these signals below 0.84); values are not corrected for it.
The parent sequence was in this pool as ten entries: three were never detected, three once, and four in most replicates, with averages from 0.34 to 2.37.
The authors' rule: three or more of the six replicates give a measured affinity, fewer mean a poor binder.

VH	mean log10 Kd (nM)	detected
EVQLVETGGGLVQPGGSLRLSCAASGFTLNSYGISWVRQAPGKGPEWVSVIYADGRRTAYGDSVKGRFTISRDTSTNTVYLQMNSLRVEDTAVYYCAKGREAGTFDSWGQGTLVTVSS	-0.70	6 of 6
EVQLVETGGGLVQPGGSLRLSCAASGFELNEYGISWVRQAPGKGPEWVSVIYSDGRRTFYGDSVKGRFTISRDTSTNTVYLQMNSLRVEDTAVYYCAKGRTAGTFDTWGQGTLVTVSS	-0.11	6 of 6
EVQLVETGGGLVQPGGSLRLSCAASGFDLNEYGISWVRQAPGKGPEWVSVIYADGMRTAYSDSVKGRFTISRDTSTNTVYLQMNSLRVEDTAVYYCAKGQNAGTFDLWGQGTLVTVSS	-0.08	6 of 6
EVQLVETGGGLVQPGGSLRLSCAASGFDLNSYGISWVRQAPGKGPEWVSVIYSDGRRTFYGDSVKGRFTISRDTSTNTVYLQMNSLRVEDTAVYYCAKGSTAGTFDSWGQGTLVTVSS	0.04	6 of 6
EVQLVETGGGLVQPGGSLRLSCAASGFVLNSYGISWVRQAPGKGPEWVSVIYADGRRTFYGDSVKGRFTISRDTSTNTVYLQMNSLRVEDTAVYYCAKGRLAGTFDSWGQGTLVTVSS	0.20	6 of 6
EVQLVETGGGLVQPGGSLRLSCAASGFQLDEYGISWVRQAPGKGPEWVSVIYADGRRTAYQDSVKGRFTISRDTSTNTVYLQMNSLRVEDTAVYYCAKGEVAGTFDSWGQGTLVTVSS	0.26	6 of 6
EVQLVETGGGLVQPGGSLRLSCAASGFTLNSYGISWVRQAPGKGPEWVSVIYSDGRRTFYSDSVKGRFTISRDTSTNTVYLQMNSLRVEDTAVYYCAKGNAAGTFDTWGQGTLVTVSS	0.43	6 of 6
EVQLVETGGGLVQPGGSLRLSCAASGFSLNEYGISWVRQAPGKGPEWVSVIYSDGRRTFYGDSVKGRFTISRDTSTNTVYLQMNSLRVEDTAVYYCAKGRAAGTFDVWGQGTLVTVSS	1.39	5 of 6
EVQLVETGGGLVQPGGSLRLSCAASGFTLNEYGISWVRQAPGKGPEWVSVIYSDGRRTFYGDSVKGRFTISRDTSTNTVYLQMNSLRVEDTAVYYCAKGCIAGTFDSWGQGTLVTVSS	1.54	4 of 6
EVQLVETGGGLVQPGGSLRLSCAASGFDLNEYGISWVRQAPGKGPEWVSVIYADGQRTYAANTVKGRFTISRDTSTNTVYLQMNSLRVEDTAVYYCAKGGAVGGQLDWGQGTLVTVSS	1.54	1 of 6
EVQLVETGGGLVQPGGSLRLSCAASKFELNEYGISWVRQAPGKGPEWVSVIYSDGRRTFYTDSVKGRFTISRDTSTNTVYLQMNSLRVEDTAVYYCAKGRCAGTFDSWGQGTLVTVSS	2.08	1 of 6
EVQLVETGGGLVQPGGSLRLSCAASGFTLNSYGISWVRQAPGKGPEWVSVIYSDGRRTFYGDSVKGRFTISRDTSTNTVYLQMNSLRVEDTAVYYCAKGRAAGWFDLWGQGTLVTVSS	nd	0 of 6
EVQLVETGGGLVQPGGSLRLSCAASGFTLNMYGISWVRQAPGKGPEWVSVIYSDGRRTFYGDSVKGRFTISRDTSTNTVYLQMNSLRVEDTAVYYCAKWRAPGTFDWWGQGTLVTVSS	nd	0 of 6
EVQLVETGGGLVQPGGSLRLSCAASGFDLQEIGISWVRQAPGKGPEWVSVIYADGTRQAYSEKVKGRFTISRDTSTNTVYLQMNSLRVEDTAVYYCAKGQLAGFLVDWGQGTLVTVSS	nd	0 of 6
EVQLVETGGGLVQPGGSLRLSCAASGFTLESYGISWVRQAPGKGPEWVSVIYSDGRRTFYTDSVKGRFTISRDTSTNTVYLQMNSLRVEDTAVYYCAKGRAAGHFDSWGQGTLVTVSS	nd	0 of 6
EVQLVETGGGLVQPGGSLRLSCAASGFTLNSYGISWVRQAPGKGPEWVSVIYSDGSRTFYDDSVKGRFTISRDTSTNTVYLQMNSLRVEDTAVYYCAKGRLAGTFDSWGQGTLVTVSS	nd	0 of 6
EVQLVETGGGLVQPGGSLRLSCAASGFTLNDYGISWVRQAPGKGPEWVSVIYSDGRRTFYGDSVKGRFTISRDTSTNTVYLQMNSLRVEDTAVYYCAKGRVAGTFWSWGQGTLVTVSS	nd	0 of 6
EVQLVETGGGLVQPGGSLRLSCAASGFTLNSYGISWVRQAPGKGPEWVSVIYSDGRRTFYGDSVKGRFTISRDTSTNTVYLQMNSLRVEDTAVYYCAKVRAAGTFDSWGQGTLVTVSS	nd	0 of 6

Again, the first 2 entries without any signal:

VH,mean log10 Kd (nM),detected
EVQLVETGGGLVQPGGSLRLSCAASGFTLNSYGISWVRQAPGKGPEWVSVIYSDGRRTFYGDSVKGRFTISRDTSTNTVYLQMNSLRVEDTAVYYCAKGRAAGWFDLWGQGTLVTVSS,nd,0 of 6
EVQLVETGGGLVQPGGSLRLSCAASGFTLNMYGISWVRQAPGKGPEWVSVIYSDGRRTFYGDSVKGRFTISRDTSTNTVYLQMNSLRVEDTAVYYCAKWRAPGTFDWWGQGTLVTVSS,nd,0 of 6